Here are results for one compound from patent US9926275B2 (priority 2013, dated 2018).

Amino acid sequences for entries named in this document (tags omitted).
UniProt P21554, whole entry: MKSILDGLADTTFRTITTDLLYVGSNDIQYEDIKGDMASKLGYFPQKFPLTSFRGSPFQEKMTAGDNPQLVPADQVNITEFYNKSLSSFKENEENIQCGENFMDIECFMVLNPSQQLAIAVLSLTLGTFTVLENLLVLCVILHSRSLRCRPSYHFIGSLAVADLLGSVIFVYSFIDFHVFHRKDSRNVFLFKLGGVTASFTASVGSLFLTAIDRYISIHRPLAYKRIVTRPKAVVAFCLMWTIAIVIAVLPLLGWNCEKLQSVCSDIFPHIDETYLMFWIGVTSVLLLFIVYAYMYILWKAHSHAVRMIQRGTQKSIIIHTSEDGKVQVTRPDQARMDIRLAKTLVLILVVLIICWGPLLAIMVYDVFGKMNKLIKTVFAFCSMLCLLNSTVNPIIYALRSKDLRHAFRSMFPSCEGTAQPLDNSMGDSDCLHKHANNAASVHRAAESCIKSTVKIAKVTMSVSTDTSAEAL

For assay [1], the target named is T1, CB1 receptor (Homo sapiens, UniProt P21554). As to the kind of experiment: DiscoveRx HitHunter cAMP XS+ assay in cAMP Hunter cell line, allosteric modulation of CP55,940 response. In kind it is cell-based. The settings on record: cAMP EC50 nM. On the procedure: Cell Handling: cAMP Hunter cell lines were expanded from freezer stocks in T25 flasks according to standard procedures and maintained in selective growth media prior to assay. Once it was established that the cells were healthy and growing normally, cells were passaged from flasks using cell dissociation reagent buffer and seeded into white walled clear bottom 384-well microplates for compound profiling. For profiling, cells were seeded at a density of 10000 cells per well in a total volume of 20 μL and were allowed to adhere and recover overnight prior to compound addition. Cells were treated the following day using the protocols shown below. cAMP modulation was determined using the DiscoveRx HitHunter cAMP XS+ assay.
Media was aspirated from cells and replaced with 10 μL 1:1 HBSS/Hepes: cAMP XS+ Ab reagent. Agonist (CP55,940) dose curves were performed to determine the EC20 value for the testing with the compounds of the present technology. […] EC20 agonist concentration was determined directly from agonist dose curve. […]
Signal Detection: After appropriate compound incubation, assay signal was generated through incubation with 20 μL cAMP XS+ED/CL lysis cocktail for one hour followed by incubation with 20 μL cAMP XS+EA reagent for three hours at room temperature. Microplates were read following signal generation with a PerkinElmer Envision™ instrument for chemiluminescent signal detection. […]

Assay [2] addresses T1, CB1 receptor. As to the kind of experiment: β-arrestin recruitment in CNR1 PathHunter cell line, allosteric modulation of CP55,940 response. In kind it is cell-based. The settings on record: β-arrestin EC50 nM. How it is done: For allosteric determination, cells were preincubated with compound followed by agonist challenge at the EC20 concentration of the agonist. 5 μL of 4× compound was added to cells and incubated at 37° C. for 30 minutes. 5 μL of 4× EC20 agonist was added to cells and incubated at 37° C. for 30 minutes.
Data Analysis: Dose curves were plotted using GraphPad Prism or Activity Base. The percentage activity is calculated using the following formula: % Activity=100%×(1−(mean RLU of test sample−mean RLU of MAX control)/(mean RLU of vehicle control [EC20 for PAM]−mean RLU of MAXcontrol).
Agonist (CP55,940) dose curves were performed for the CNR1 PathHunter and cAMP Hunter cell lines. Data shown was normalized to the maximal and minimal response observed in the presence of control ligand and vehicle respectively. The cAMP assay was performed in the presence of 20 μM forskolin (EC80).
In Vitro Evaluation: The in vitro evaluation of the covalent allosteric modulators was performed using as described previously.

Molecules are shown by their SMILES.

In the case of `O=C(Nc1ccc(Cl)cc1)Nc1cccc(-c2cccc(N3CCCC3)n2)c1` [Compound 10a, 1-(4-Chlorophenyl)-3-(3-(6-(pyrrolidin-1-yl)pyridin-2-yl)phenyl)urea], the results for the 50% effective concentration (EC50) in assay [1] and in assay [2] were 231 nM and 27 nM, respectively.
